For nine compounds, inhibition results are on record in ChEMBL document CHEMBL5523685, “Development of UTX-143, a selective sodium-hydrogen exchange subtype 5 inhibitor, using amiloride as a lead compound” (Bioorg Med Chem, 2024).

Sequences of proteins named here, by UniProt entry; tags and fusion partners are left off.
UniProt P26431, whole entry: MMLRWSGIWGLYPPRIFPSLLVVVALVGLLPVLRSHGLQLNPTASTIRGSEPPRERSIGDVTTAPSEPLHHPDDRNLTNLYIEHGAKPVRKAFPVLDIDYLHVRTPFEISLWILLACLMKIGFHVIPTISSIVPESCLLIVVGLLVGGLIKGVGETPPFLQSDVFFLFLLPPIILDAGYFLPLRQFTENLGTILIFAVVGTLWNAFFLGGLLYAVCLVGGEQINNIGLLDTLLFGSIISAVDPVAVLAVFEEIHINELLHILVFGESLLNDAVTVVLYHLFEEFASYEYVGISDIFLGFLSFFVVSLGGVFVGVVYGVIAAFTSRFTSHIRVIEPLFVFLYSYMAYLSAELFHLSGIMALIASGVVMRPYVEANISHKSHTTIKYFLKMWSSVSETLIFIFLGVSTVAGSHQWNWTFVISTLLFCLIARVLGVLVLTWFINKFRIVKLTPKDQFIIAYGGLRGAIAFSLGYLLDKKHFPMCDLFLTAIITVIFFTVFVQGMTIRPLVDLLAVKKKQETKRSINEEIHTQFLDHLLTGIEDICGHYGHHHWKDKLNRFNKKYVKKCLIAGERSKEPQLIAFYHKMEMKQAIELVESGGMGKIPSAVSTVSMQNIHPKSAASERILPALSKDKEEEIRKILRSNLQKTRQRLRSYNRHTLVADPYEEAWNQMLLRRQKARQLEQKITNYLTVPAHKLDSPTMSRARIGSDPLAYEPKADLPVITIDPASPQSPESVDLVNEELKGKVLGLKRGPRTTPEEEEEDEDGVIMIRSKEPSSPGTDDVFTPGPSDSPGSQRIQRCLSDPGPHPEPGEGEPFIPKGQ

As a reminder, the inhibition is the share of the control response that was lost under treatment. High values mean a strong effect, low ones a weak effect.

What all share (assay type): cell-based
For assay [1], the target named is Sodium/hydrogen exchanger 1 (Rattus norvegicus) (UniProt P26431). Briefly: Inhibition of rat NHE1 expressed in Chinese hamster ovary cells (AP-1) at >500 uM measured after 9 mins by BCECF-AM staining based NH4Cl pre-pulse method relative to control.
The target is the same in assay [2]. Briefly: Inhibition of rat NHE1 expressed in Chinese hamster ovary cells (AP-1) at >100 uM measured after 9 mins by BCECF-AM staining based NH4Cl pre-pulse method relative to control.
The target is the same in assay [3]. The experiment in a line: Inhibition of rat NHE1 expressed in Chinese hamster ovary cells (AP-1) at >50 uM measured after 9 mins by BCECF-AM staining based NH4Cl pre-pulse method relative to control.
Assay [4] has the same target. Briefly: Inhibition of rat NHE1 expressed in Chinese hamster ovary cells (AP-1) at >300 uM measured after 9 mins by BCECF-AM staining based NH4Cl pre-pulse method relative to control.
For assay [5] the target is unchanged. The experiment in a line: Inhibition of rat NHE1 expressed in Chinese hamster ovary cells (AP-1) at >10 uM measured after 9 mins by BCECF-AM staining based NH4Cl pre-pulse method relative to control.

For the compound `Cc1cccc(-c2nc(C(=O)NC(=N)N)c(N)nc2N(C)CCO)c1`, the inhibition in assay [1] was 43%.

In turn, `CN(CCO)c1nc(N)c(C(=O)NC(=N)N)nc1Cl` came in with an inhibition in assay [1] of 2.8%.

In the case of `CN(CCO)c1nc(N)c(C(=O)NC(=N)N)nc1-c1ccc(Cl)cc1`, the inhibition in assay [2] worked out at 41%.

Consider `CN(CCO)c1nc(N)c(C(=O)NC(=N)N)nc1-c1ccc(Br)cc1`, for which the inhibition in assay [3] was 30%.

`CN(CCO)c1nc(N)c(C(=O)NC(=N)N)nc1-c1ccc(Cl)cc1Cl`: in assay [2], the inhibition was 28%.

Compound `CCCc1ccc(-c2nc(C(=O)NC(=N)N)c(N)nc2N(C)CCO)cc1` displayed an inhibition in assay [2] of 20%.

For the compound `CN(CCO)c1nc(N)c(C(=O)NC(=N)N)nc1-c1ccccc1`, in assay [1], the inhibition was found to be 44%.

`CN(CCO)c1nc(N)c(C(=O)NC(=N)N)nc1-c1ccc(C(F)(F)F)cc1C(F)(F)F` gave an inhibition in assay [4] of 48%.

In turn, `CN(CCO)c1nc(N)c(C(=O)NC(=N)N)nc1-c1ccc(C(F)(F)F)cc1` returned an inhibition in assay [5] of 21%.
